What was measured:
Tumor necrosis factor [1] = target: T1, Tumor necrosis factor (Homo sapiens, UniProt P01375); conditions: Blood, dose 80.0 mg, time 1.0 day
[2] = AUC(0 to t) in rat at 60 mg/kg/day after 13 weeks; type: ADME, organism-based; set-up: time 13 weeks, dose 60 mg/kg/day; conditions: in vivo
Tumor necrosis factor [3] = target: T1, Tumor necrosis factor; conditions: Blood, dose 80.0 mg, time 1.0 day; remark: listed apart in the source
[4] = target: T2, ORAI1/STIM1 (Homo sapiens) (UniProt Q96D31+Q13586); conditions: HEK293, dose 300.0 nM, time 4.0 hrs
Tumor necrosis factor [5] = target: T1, Tumor necrosis factor; conditions: Blood, dose 80.0 mg, time 14.0 day
Tumor necrosis factor [6] = target: T1, Tumor necrosis factor; conditions: Blood, dose 160.0 mg, time 1.0 day
[7] = target: T2, ORAI1/STIM1 (Homo sapiens); conditions: HEK293, dose 100.0 nM, time 4.0 hrs
Tumor necrosis factor [8] = target: T1, Tumor necrosis factor; conditions: Blood, dose 160.0 mg, time 14.0 day
Tumor necrosis factor [9] = target: T1, Tumor necrosis factor; conditions: Blood, dose 80.0 mg, time 14.0 day; remark: listed apart in the source

Sequences of proteins named here, by UniProt entry; tags and fusion partners are left off.
UniProt P01375, whole entry: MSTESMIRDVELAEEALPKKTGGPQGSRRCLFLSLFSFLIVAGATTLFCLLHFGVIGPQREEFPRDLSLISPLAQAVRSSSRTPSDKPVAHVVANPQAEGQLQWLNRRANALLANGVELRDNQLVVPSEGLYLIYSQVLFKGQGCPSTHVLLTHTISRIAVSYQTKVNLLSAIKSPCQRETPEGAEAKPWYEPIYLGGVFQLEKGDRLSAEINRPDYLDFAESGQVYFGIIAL
UniProt Q96D31, whole entry, looked up: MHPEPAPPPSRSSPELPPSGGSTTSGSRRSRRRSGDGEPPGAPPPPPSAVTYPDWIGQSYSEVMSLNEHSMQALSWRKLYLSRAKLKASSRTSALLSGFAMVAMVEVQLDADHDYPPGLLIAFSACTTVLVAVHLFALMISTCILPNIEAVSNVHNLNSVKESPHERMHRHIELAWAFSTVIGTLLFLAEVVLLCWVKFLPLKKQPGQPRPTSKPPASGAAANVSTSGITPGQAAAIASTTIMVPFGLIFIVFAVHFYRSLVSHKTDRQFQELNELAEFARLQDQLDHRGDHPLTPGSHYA
UniProt Q13586, whole entry, looked up: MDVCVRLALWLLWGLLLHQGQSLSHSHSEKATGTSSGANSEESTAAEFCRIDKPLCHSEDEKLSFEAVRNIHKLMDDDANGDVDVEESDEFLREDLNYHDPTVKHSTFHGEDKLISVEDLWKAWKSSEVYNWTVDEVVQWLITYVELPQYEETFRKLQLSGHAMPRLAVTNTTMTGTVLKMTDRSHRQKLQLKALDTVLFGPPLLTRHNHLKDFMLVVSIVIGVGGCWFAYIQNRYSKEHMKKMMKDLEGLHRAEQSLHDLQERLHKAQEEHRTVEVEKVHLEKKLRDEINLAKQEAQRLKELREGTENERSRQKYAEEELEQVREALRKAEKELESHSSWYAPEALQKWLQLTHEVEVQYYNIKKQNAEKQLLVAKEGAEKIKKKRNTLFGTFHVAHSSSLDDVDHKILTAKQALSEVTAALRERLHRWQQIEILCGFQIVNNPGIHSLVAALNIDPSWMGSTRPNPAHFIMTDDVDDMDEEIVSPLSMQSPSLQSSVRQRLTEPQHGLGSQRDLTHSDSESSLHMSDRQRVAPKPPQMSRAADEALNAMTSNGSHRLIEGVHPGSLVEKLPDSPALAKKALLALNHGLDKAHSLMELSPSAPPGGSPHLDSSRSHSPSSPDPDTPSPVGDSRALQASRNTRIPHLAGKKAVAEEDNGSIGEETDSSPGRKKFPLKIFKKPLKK

SMILES: Cc1c(-c2ccc(NC(=O)c3c(F)cccc3F)cc2)cccc1-c1nn(C)c(=O)o1
- inhibition (Tumor necrosis factor [1]): 21%
- AUC(0-t) at 2184 h [2]: 72900 ng·h/mL
- inhibition (Tumor necrosis factor [3]): 57%
- inhibition [4]: 77.6%
- inhibition (Tumor necrosis factor [5]): 82%
- inhibition (Tumor necrosis factor [6]): 66%
- inhibition [7]: 72.9%
- inhibition (Tumor necrosis factor [8]): 86%
- inhibition (Tumor necrosis factor [9]): 56%

Reference: ChEMBL document CHEMBL4831556, “Discovery of a Novel Potent and Selective Calcium Release-Activated Calcium Channel Inhibitor: 2,6-Difluoro-N-(2'-methyl-3'-(4-methyl-5-oxo-4,5-dihydro-1,3,4-oxadiazol-2-yl)-[1,1'-biphenyl]-4-yl)benzamide. Structure-Activity Relationship and Preclinical Characterization” (J Med Chem, 2021)
